Laboratory results reported in US7732464B2, “Heterocyclic substituted 4-(aminomethyl)-piperidine benzamides as 5HT4-antagonists” (Janssen Pharmaceutica, N.V., priority 2003, dated 2010).

Protein sequences, listed by entry. Tags and fused reporters are not part of them.
UniProt Q13639, whole entry: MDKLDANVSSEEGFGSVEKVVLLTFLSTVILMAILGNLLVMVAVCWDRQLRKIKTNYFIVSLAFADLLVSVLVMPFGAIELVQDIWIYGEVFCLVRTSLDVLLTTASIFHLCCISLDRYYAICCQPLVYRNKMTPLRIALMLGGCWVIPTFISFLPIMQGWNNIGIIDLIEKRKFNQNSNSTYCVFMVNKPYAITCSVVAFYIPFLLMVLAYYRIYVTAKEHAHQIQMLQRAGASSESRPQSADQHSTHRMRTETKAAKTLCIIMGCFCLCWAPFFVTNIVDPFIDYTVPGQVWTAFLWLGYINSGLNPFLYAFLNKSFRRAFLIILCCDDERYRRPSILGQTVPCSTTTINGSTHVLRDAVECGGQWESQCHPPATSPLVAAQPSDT

What was measured:
[1] = target: h5-HT4b (Homo sapiens, UniProt Q13639); assay: 5HT4 antagonism: [3H]GR113808 binding to membranes of h5-HT4b-HEK 293 clone 9 cells; details: displacement of [3H]GR113808 0.1 nM, h5-HT4b-HEK 293 membranes, 30 min at 25° C.
Description: h5-HT4b-HEK 293 clone 9 cells were cultured in 150 mm Petri dishes and washed twice with cold PBS. The cells were then scraped from the plates and suspended in 50 mM Tris-HCl buffer, pH 7.4 and harvested by centrifugation at 23,500 rpm for 10 minutes. The pellet was resuspended in 5 mM Tris-HCl, pH 7.4 and homogenized with an Ultra Turrax homogenizer. The membranes were collected by centrifugation at 30,000 rpm for 20 min, resuspended in 50 mM Tris-HCl pH 7.4 and stored at −80° C. For the experiment, assay mixtures (0.5 ml) contained 50 μl of the tritiated ligand (5-HT4 antagonist [^3H]GR113808 0.1 nM) and 0.4 ml membrane preparation (15 μg protein/ml). 50 μl of 10% DMSO was added for total binding. 50 μl of 1 μM of (+)-trans-(1-butyl-3-hydroxy-4-piperidinyl)methyl 8-amino-7-chloro-2,3-dihydro-1,4-benzodioxin-5-carboxylate (a proprietary 5HT4 agonist of Janssen Pharmaceutica) was added for determination of non-specific binding.
The [^3H]GR113808 assay buffer was 50 mM HEPES-NaOH, pH 7.4. The mixtures were incubated for 30 min at 25° C. The incubation was terminated by filtration over a Unifilter 96 GF/B presoaked in 0.1% polyethylenimine, followed by six washing steps with 50 mM HEPES-NaOH, pH 7.4.

[2] = Metabolic stability: incubation with liver microsomes and NADPH-generating system, LC-MS analysis; details: compound 5 μM; microsomes 1 mg/ml; NADPH-generating system; 60 minutes at 37 degrees Celsius
Description: Sub-cellular tissue preparations were made according to Gorrod et al. (Xenobiotica 5: 453-462, 1975) by centrifugal separation after mechanical homogenization of tissue. Liver tissue was rinsed in ice-cold 0.1 M Tris-HCl (pH 7.4) buffer to wash excess blood. Tissue was then blotted dry, weighed and chopped coarsely using surgical scissors. The tissue pieces were homogenized in 3 volumes of ice-cold 0.1 M phosphate buffer (pH 7.4).
Tissue homogenates were centrifuged at 9000×g for 20 minutes at 4° C. The resulting supernatant was stored at −80° C. and is designated ‘S9’.
The S9 fraction can be further centrifuged at 100.000×g for 60 minutes (4° C.). The resulting supernatant was carefully aspirated, aliquoted and designated ‘cytosol’. The pellet was re-suspended in 0.1 M phosphate buffer (pH 7.4) in a final volume of 1 ml per 0.5 g original tissue weight and designated ‘microsomes’.
All sub-cellular fractions were aliquoted, immediately frozen in liquid nitrogen and stored at −80° C. until use. […]
Metabolic stability was expressed as % metabolism of the compound after 60 minutes (equation given as Example) of incubation in the presence of active microsomes E(act))

Structure (SMILES)	pIC50 (5HT4 antagonistic data) [1]	further results
Cc1ccc(C(=O)NC[C@@H]2CCN(CCCCn3ccc(O)n3)C[C@H]2O)c2c1OCCCO2	8.91	–
COc1ccc(C(=O)NC[C@@H]2CCN(CCCN3CCOCC3)C[C@H]2O)c2c1OCCCO2	8.51	% metabolised compound after 60 minutes [2]: 8%
Cc1ccc(C(=O)NC[C@@H]2CCN(CCCN3CC(=O)NC3=O)C[C@H]2O)c2c1OCCCO2	8.48	% metabolised compound after 60 minutes [2]: 17%
Cc1cc2c(c(C(=O)NC[C@@H]3CCN(CCCc4nnn[nH]4)C[C@H]3O)c1)OCCCO2	–	pIC50 (5HT4 antagonistic data) ([1]; tested form: HCl): 7.77
Cc1cc2c(c(C(=O)NC[C@@H]3CCN(CCCn4nn[nH]c4=O)C[C@H]3O)c1)OCCCO2	–	pIC50 (5HT4 antagonistic data) ([1]; tested form: H2O): 7.82
O=C(NC[C@@H]1CCN(CCCCn2ccc(O)n2)C[C@H]1O)c1ccc(F)c2c1OCCCO2	9.14	–
CO[C@@H]1CN(CCCc2cc(O)no2)CC[C@H]1CNC(=O)c1cc(F)cc2c1OCCCO2 (relative stereo)	7.3	–
